The text below walks through data of patent US5475032A, “2,4-disulfonyl phenyl butyl nitrone, its salts, and their use as pharmaceuticals” (Oklahoma Medical Research Foundation, priority 1995, dated 1995).

Data set [1] deals with acute lethal effects of adriamycin. The data set can be described thus: adriamycin acute lethality and its prevention by pretreatment, DBA/2J mice (Example 13).
Data set [2] is described as follows: acute lethality, single i.p. doses of nitrone (Example 9). In kind it is in vivo, mouse. The following applies: mouse, in vivo, ip.
In data set [3] the test system is C57BL/6L mice. The description is as above. The following applies: single i.p. doses; PBN at 560 mg/kg, Compound I at doses nearly twenty times as great. In kind it is in vivo, mouse.
The test system of data set [4] is neuron loss following brain ischemia and reperfusion injury. Kind of data set: neuronal density after 5 min bilateral carotid occlusion, compound i.p. 30 min before ischemia (Example 3). Type of data set: in vivo, gerbil. To be noted: low dose levels, such as 3.2 mg/kg.

Consider `CC(C)(C)[N+]([O-])=Cc1ccc(S(=O)(=O)O)cc1S(=O)(=O)O` [Compound I], for which the “shift to the right of the adriamycin lethality dose effect curve” value in data set [1] (100 mg/kg i.p. pretreatment, DBA/2J) is recorded as 5 fold. For the same molecule, in data set [1] (pretreatment with 30 and 100 mg/kg), the “shifts in the adriamycin lethality dose effect curve” value is “dose related shifts in the adriamycin lethality dose effect curve”. Also, the survival in data set [2] (320 mg/kg single i.p. dose), in data set [2] (560 mg/kg single i.p. dose), in data set [2] (1000 mg/kg single i.p. dose), in data set [2] (3000 mg/kg single i.p. dose) and in data set [2] (10000 mg/kg single i.p. dose) was 100% throughout. Also, the toxicity result in data set [3] is recorded as “no toxicity”. The “potency at preventing neuronal loss relative to prior art compounds” value in data set [4] is given as 2-3 times.
